## AlphaSeq binding of Ab-14 light chain variants to a spike HR2 peptide

The target is the same throughout: PDVDLGDISGINAS, from the HR2 region of SARS-CoV-2 spike.

The variants keep the heavy chain, the linker and the frameworks of Ab-14 (scFv order VH, the linker GGGGSGGGGSGGGGS, VL).
VH: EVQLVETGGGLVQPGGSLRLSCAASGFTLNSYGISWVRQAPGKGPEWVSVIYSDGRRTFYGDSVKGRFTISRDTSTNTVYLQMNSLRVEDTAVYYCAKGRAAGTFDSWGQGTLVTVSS
VL: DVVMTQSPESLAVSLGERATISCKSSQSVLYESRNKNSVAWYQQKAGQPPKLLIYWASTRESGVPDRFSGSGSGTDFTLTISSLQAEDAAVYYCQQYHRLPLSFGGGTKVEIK

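The parent was found by panning a naive human phage display library on the peptide. Library AAYL50 holds single substitutions and randomly drawn double and triple substitutions in the CDRs. The assay is AlphaSeq: two haploid yeast populations carry antibody and antigen on their surface. Binding brings cells together so that they mate, and sequencing counts the barcode pairs among the diploids. The ratio of observed to expected reads was calibrated, replicate by replicate, on BCL2-family standards whose Kd was known from biolayer interferometry. Mating was done three times.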

Variants are written as CDR1, CDR2 and CDR3 of the light chain (limits as in the source). Parent: KSSQSVLYESRNKNSVA, WASTRES, QQYHRLPLS. Values are log10 of the apparent Kd in nM; lower means stronger binding. The mean shown is taken over the replicates in which the pair was detected. An entry "not detected" has no value in the source: the pair was not observed among the diploids in any replicate. This suggests poor binding but is not conclusive. Background: pairings of library AAYL50 with three empty control strains gave a value in 18% of cases (median 4.19, 5th percentile 2.99). Values in that range, when seen in few replicates, are hard to tell from nonspecific mating. Also given: how often the same scFv was detected with the empty control strains. In this assay the parent's reference entry averaged 0.65; its copy inside this library read 1.68.

CDR-L1,CDR-L2,CDR-L3,mean log10 Kd (nM),detected,signal with controls
KSSQSVLYESRNKNSVA,NASTRES,QQYHILPLS,0.19,3/3,1/9
KSSQRVYYESRNKNSVA,WADTRES,QQYHRLPLS,1.72,3/3,2/9
KSSQSVLYESRAKNSVA,WASTRES,QQYNRLPLS,0.96,3/3,1/9
KSSQSVLYESRNKNCVA,WASLRES,QQYHRLPLS,1.85,3/3,1/9
KSSQSVLYESRNKYSVC,WASTRES,QQYTRLPLS,3.51,1/3,0/9
KSSQSVLYESRIKNSVA,WASTREC,QQYHRLPLS,1.72,3/3,1/9
KSSQDFLYESTNKNSVA,WASTRES,QQYHRLPLS,0.59,3/3,1/9
KSSQSTLYESRNKNSTA,WASTRES,QQYHRLPLS,not detected,0/3,1/9
KSSWSVHYESRNKNSVA,WASTRES,QQYHRLPLY,1.25,3/3,2/9
KSSQSCLYCSRNKNSVA,WASTRES,QQYHFLPLS,1.99,1/3,0/9
KSSQAWLYESRNKNSVA,WASTRES,QQDHRLPLS,3.22,1/3,1/9
KSSQSVLYESRNKNSVA,WASTRES,QQEHPLGLS,5.12,2/3,1/9
KSLQSTLYASRNKNSVA,WASTRES,QQYHRLPLS,1.50,3/3,0/9
KSSQSVLYCSRNKNSVA,WASTVES,QQYHRLPDS,4.60,2/3,2/9
KSSQAVLYESRDKNSVA,WASTRES,QQYHTLPLS,1.02,3/3,0/9
KSSQSVLYESRNKNSVF,WASTRES,QQIHRLPGS,not detected,0/3,4/9
KSSQSSLYESRNKNSVK,WASTRES,QQYHRLPLR,not detected,0/3,1/9
KSSQSGLYESRNKNSVA,WASTRGS,QQYHRLPPS,1.05,3/3,0/9
KMSQSVLYESRNKNSVA,WAQTRES,QQYHRLPWS,not detected,0/3,1/9
KSSQSVLYESRNENSVA,WASTRKS,QQYHRLPLR,1.19,3/3,0/9
KSSQSVLYESRNKNSVA,DVSTHES,QQYHRLPLS,0.28,3/3,3/9
KSSWSVLYESRNKESVA,WASTRES,QQYHRLHLS,not detected,0/3,1/9
KSSQSVLYESRNKNSVA,WVSTRES,QQYMRLPLS,1.78,3/3,4/9
KSSQSGLYESRNWNSFA,WASTRES,QQYHRLPLS,not detected,0/3,1/9
KSRQSVLYESRNKNSVA,WASTREW,QQYHTLPLS,2.08,3/3,2/9
KSSQSVTYESRNKNSVA,WASTRKV,QQYHRLPLS,2.94,3/3,1/9
DSSQSVLYESRNKNSVA,WKSGRES,QQYHRLPLS,not detected,0/3,3/9
LSSQSVLYELYNKNSVA,WASTRES,QQYHRLPLS,1.72,3/3,0/9
KSSQSVLYISRWKNSVA,WASTRES,QQYHRLPVS,not detected,0/3,0/9
KSSISVKYISRNKNSVA,WASTRES,QQYHRLPLS,1.66,3/3,0/9
KSSQSVGYESRNKNSVA,WASARES,QQYHRLPLR,1.81,3/3,0/9
KSSQSVLYEYRNKNSVA,WASTRES,QQYHRLHLS,not detected,0/3,1/9
KSSQSVLIESKNKNSVC,WASTRES,QQYHRLPLS,3.29,3/3,3/9
KSSQSVLYESRNKSSVA,WASTREK,QQYHRRPLS,4.64,1/3,0/9
KSSQSVLCESRQKNMVA,WASTRES,QQYHRLPLS,3.25,1/3,0/9
KSSQSVLYESRNKNSVA,WASTRMS,QQYHRNPLS,3.61,2/3,1/9
KSSQSVLYESRNKNSVW,WWSTRES,QQYHRWPLS,3.51,1/3,0/9
KSSQSVLYESRNKNSVA,WASTREM,QQYHRLPRS,1.42,3/3,3/9

Continued, with the values leading:

mean log10 Kd (nM),detected,signal with controls,CDR-L1,CDR-L2,CDR-L3
4.69,1/3,4/9,KSSQSVHYESRNKNSVA,WASRRES,QYYHRLPLS
1.15,3/3,3/9,KSSESVLKESRNKNSVA,WASQRES,QQYHRLPLS
4.78,1/3,1/9,KSSQSVLYESRNKNSVQ,CCSTRES,QQYHRLPLS
4.61,2/3,3/9,KSIQSVLYHSRNKNSVA,WAKTRES,QQYHRLPLS
1.10,3/3,1/9,KSSQSVLYESRNKNSFA,KASTRES,QQYHRLPLS
1.96,3/3,2/9,KSSQSVLYESRNHNSVA,WASTREW,QQYHRLPLS
2.51,1/3,0/9,KSSQSVLYPSRNKNWVA,WASTRES,QQYHRLPLS
5.07,1/3,3/9,KSSQSVLYESRNKNSNA,WASTRES,QQYHMLSLS
5.32,1/3,1/9,KSSQSVLYESRNKNSVN,WASTRES,QFYHRVPLS
2.70,3/3,2/9,KQLQSVLYESRAKNSVA,WASTRES,QQYHRLPLS
3.25,3/3,3/9,KSSQSVLYESRNKHSVA,WAFTRES,QQYHRLPLP
4.22,2/3,5/9,KSSQSVLYESRNKNSVA,WADFRES,QTYHRLPLS
3.62,1/3,2/9,KSSQSVLAESRNHNSNA,WASTRES,QQYHRLPLS
5.13,1/3,1/9,KSSRSVLYESRNKNSVA,WASTRES,QQYHRFPLS
1.89,3/3,0/9,KSSQSVLYEARNKNSVA,WASTRES,QQYHRSELS
1.61,3/3,2/9,KSSQSVLYESRNANSVA,WASTRVS,QQYVRLPLS
not detected,0/3,0/9,KSSQSVLYESKNKNSVA,WASTRES,QQYHRWPLS
1.94,3/3,2/9,KSSQSVLYESRNKNQVA,WASTRES,QQTHWLPLS
2.85,1/3,1/9,KSSQSVLYESRNGNSVA,TASTMES,QQYHRLPLS
2.02,1/3,0/9,KSSQSVLEESRNKNSVA,WASTRES,LQYHRLPDS
0.61,3/3,1/9,KSSQSVLYESRNKNSVA,WASTREA,QAYARLPLS
not detected,0/3,0/9,KSSQSCLYESRNKNSWA,WASTRES,QQYHRLPLS
not detected,0/3,0/9,KSSQSVLYESRNKRSVA,WAWTREC,QQYHRLPLS
not detected,0/3,1/9,KHSQSVLYRSRNKNSRA,WASTRES,QQYHRLPLS
not detected,0/3,1/9,KSSQSVLYESRNINSVA,WASTRES,QCYLRLPLS
2.97,1/3,0/9,KSSQSVLYESRNKNSVS,WASTRTS,QQYHNLPLS
4.10,2/3,1/9,KSSQSVLYEWRNKNSVA,WASTLKS,QQYHRLPLS
1.25,3/3,7/9,KSSQSVLYASRYENSVA,WASTRES,QQYHRLPLS
4.65,1/3,1/9,KSSQSVLYESRTKNSVA,WASFRES,QQYHRLPCS
1.51,3/3,0/9,KWSWSVQYESRNKNSVA,WASTRES,QQYHRLPLS
not detected,0/3,0/9,KSSQSVLYESRNKNSVA,WKSTRES,QQYHRRPLI
1.47,2/3,0/9,KSSQWVLYESRNKNSVA,WASTRES,QQYHRLPPI
1.00,3/3,2/9,KSSQSVLYEHRNKNSVA,WASTRES,QDYHQLPLS
4.11,1/3,5/9,KSSQSVLYEKRVKNSQA,WASTRES,QQYHRLPLS
3.90,1/3,1/9,KSAQSVLYESRNKNSVA,WKSTRES,QQMHRLPLS
4.14,1/3,3/9,KSGQSVLYESRNKNSVA,WADTRES,QQYHRLPQS
0.99,3/3,1/9,KTSQSVLYYSKNKNSVA,WASTRES,QQYHRLPLS
2.89,3/3,4/9,KSSQSLLHESRNKNSVV,WASTRES,QQYHRLPLS

A selection of 4 entries from above:

CDR-L1	CDR-L2	CDR-L3	mean log10 Kd (nM)	detected	signal with controls
KSSQAWLYESRNKNSVA	WASTRES	QQDHRLPLS	3.22	1/3	1/9
KSSQSCLYESRNKNSWA	WASTRES	QQYHRLPLS	not detected	0/3	0/9
KSSQSVLYEHRNKNSVA	WASTRES	QDYHQLPLS	1.00	3/3	2/9
KSSQSVLYESRNKNSVA	WVSTRES	QQYMRLPLS	1.78	3/3	4/9

Data: MIT Lincoln Laboratory AlphaSeq set, Engelhart et al. 2022, doi:10.1038/s41597-022-01779-4, as distributed in FLAb.